# Tests used:
# [1] = tested on: ASIC1b and ASIC1a/2a channels; parameters: method as in Liu et al., 2018; Cristofori-Armstrong et al., 2019; conditions: desensitizing acidic pH; ref Liu et al., 2018; Cristofori-Armstrong et al., 2019; cited from earlier work
# [2] = tested on: endogenous proton-activated currents in HEK cells; format: cell-based, human
# Method: (§1) CHO hASIC1a cells were cultured according to vendor instructions (B-SYS GmbH) and HEK cells using standard in-house methods. Both cell lines were harvested using optimized protocols and re-suspended in serum-free media (Gibco CHO-S-SFM from Thermo Fisher Scientific for CHO cells, and Ex-Cell 302 from Merck Sigma-Aldrich for HEK cells) to obtain a suspension of cells with smooth membranes and little debris, before transfer to the automated cell hotel consisting of a 60 ml plastic container (Sophion SB2050) and a magnetic stir bar to prevent cell clumping. […] Cell capture, sealing and whole-cell access was achieved using optimized QPatch protocols before currents were recorded using a holding potential of −60 mV. […]
# (§2) Concentration-response xC50 curves from Patchliner and QPatch 48 experiments were calculated by plotting %inhibition (antagonists) or activation (pH) data against concentration in Prism software (GraphPad), using the variable sigmoidal dose-response function to fit the Hill equation with theoretical minimum block of 0% and maximum block of 100% and a free constant for Hill slope. […]
# hASIC1a = target: T1, hASIC1a (Homo sapiens, UniProt P78348); format: cell-based; parameters: host or cells: CHO (tetracycline-inducible); conditions: pH 6.5 agonist, QPatch 48 single hole
# T1 sequence (P78348 1-528): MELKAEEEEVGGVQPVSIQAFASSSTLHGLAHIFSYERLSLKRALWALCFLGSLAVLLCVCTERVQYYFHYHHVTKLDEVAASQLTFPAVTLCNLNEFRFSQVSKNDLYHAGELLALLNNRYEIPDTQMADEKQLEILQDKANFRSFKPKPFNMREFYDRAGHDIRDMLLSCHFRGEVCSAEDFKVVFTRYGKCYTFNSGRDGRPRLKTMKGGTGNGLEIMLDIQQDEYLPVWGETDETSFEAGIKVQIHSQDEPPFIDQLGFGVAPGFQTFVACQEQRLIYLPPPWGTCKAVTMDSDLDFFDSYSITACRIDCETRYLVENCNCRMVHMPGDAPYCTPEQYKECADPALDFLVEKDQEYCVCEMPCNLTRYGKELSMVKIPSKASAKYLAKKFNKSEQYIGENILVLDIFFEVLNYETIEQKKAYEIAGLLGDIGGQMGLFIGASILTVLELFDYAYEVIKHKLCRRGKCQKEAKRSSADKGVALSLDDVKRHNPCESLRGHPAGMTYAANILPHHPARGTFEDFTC
# Method: as §1, §2
smiles,measurement,setting,value
CC[C@H](C)[C@@H]1NC(=O)[C@@H](NC(=O)[C@H](CC(=O)O)NC(=O)[C@@H](N)CCC(=O)O)CSSC[C@@H]2NC(=O)[C@@H]3CSSC[C@@H](C(=O)N[C@H](C(=O)N4CCC[C@H]4C(=O)N[C@@H](CCCCN)C(=O)N[C@H](C(=O)N4CCC[C@H]4C(=O)N[C@@H](CCCCN)C(=O)N[C@H](C(=O)O)[C@@H](C)O)[C@@H](C)O)C(C)C)NC(=O)[C@H](C(C)C)NC(=O)[C@H](CCC(=O)O)NC(=O)[C@H](Cc4ccccc4)NC(=O)[C@H](CO)NC(=O)[C@H](CCCNC(=N)N)NC(=O)[C@H](CCCNC(=N)N)NC(=O)[C@H](CCCNC(=N)N)NC(=O)[C@H](CCCCN)NC(=O)[C@H](Cc4c[nH]c5ccccc45)NC(=O)[C@H](CSSC[C@H](NC(=O)CNC(=O)[C@H](CCCCN)NC(=O)[C@H](Cc4c[nH]c5ccccc45)NC(=O)[C@H](CCCCN)NC(=O)[C@@H]4CCCN4C1=O)C(=O)N[C@@H](C(C)C)C(=O)N[C@@H](CC(N)=O)C(=O)N[C@@H](CCCNC(=N)N)C(=O)N[C@@H](Cc1c[nH]cn1)C(=O)NCC(=O)N[C@@H](CC(=O)O)C(=O)N3)NC(=O)[C@H](CCC(=O)O)NC(=O)[C@H](CC(C)C)NC(=O)CNC(=O)[C@H](CCC(=O)O)NC2=O [PcTx1],potency of potentiation relative to ASIC1a inhibition (lower),[1],~10 fold
same,potentiation of endogenous pH-evoked responses,[2],no evidence for such modulation
same,mean inhibition at highest concentration tested,[2]; 30 nM PcTx1,below 50%
same,Hill slope,hASIC1a,2.2

# Reference: paper PMC9629855, “Development of ASIC1a ligand-gated ion channel drug screening assays across multiple automated patch clamp platforms” (Frontiers in Molecular Neuroscience, 2022)
